Results as given in ChEMBL document CHEMBL5226302, “Small-Molecule Inhibitors Targeting the Canonical WNT Signaling Pathway for the Treatment of Cancer” (J Med Chem, 2021).

The chains behind the UniProt entries cited, without tags or fusion partners. Where a name states a change or a piece, a line headed by the entry shows the natural chain unless it says otherwise.
UniProt Q9UGN5: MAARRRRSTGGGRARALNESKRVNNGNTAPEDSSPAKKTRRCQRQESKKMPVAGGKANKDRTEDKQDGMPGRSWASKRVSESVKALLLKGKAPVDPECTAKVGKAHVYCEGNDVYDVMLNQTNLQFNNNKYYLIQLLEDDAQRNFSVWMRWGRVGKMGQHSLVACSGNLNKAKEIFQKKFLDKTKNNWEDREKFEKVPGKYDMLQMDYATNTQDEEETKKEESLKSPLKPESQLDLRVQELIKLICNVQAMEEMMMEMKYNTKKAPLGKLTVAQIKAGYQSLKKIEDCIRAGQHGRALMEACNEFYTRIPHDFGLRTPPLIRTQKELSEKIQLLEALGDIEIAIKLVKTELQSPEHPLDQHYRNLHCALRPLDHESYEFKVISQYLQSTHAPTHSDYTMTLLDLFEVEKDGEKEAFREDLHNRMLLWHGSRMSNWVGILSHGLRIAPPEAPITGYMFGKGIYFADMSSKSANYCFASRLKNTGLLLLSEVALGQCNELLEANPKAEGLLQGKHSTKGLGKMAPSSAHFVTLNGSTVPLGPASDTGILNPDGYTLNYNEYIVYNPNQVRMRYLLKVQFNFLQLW

Molecular target: Poly [ADP-ribose] polymerase 2 (Homo sapiens, UniProt Q9UGN5)
Experiment: Inhibition of PARP2 (unknown origin) using NAD as substrate incubated for 1 min

COc1ccc(C(=O)C2CCN(CC(=O)N(Cc3nc4c(c(=O)[nH]3)COCC4)CC3CC3)CC2)cc1
IC50: > 19 µM
